This series in a line: Hygroscopicity of acid addition salts of azithromycin after storage. Format: physicochemical. Conditions: after 24 hours storage at 40° C. and 75% relative humidity.

For Succinic acid, the “Salt form (hygroscopicity)” value is reported as “Amorphous, hygroscopic”.

The record behind these values is patent US20090318375A1, “Crystalline Azithromycin L-Malate Monohydrate and Pharmaceutical Composition Containing Same” (Hanmi Pharm Co., Ltd, priority 2003, published 2009).
